# PubChem BioAssay AID2676 (National Center for Advancing Translational Sciences (NCATS), 2010)
# Chains of the proteins cited; added tags and fusions are not shown. Lines headed by an entry give the natural chain unless they say otherwise; changes in a name come on top.
# UniProt Q9HBX9: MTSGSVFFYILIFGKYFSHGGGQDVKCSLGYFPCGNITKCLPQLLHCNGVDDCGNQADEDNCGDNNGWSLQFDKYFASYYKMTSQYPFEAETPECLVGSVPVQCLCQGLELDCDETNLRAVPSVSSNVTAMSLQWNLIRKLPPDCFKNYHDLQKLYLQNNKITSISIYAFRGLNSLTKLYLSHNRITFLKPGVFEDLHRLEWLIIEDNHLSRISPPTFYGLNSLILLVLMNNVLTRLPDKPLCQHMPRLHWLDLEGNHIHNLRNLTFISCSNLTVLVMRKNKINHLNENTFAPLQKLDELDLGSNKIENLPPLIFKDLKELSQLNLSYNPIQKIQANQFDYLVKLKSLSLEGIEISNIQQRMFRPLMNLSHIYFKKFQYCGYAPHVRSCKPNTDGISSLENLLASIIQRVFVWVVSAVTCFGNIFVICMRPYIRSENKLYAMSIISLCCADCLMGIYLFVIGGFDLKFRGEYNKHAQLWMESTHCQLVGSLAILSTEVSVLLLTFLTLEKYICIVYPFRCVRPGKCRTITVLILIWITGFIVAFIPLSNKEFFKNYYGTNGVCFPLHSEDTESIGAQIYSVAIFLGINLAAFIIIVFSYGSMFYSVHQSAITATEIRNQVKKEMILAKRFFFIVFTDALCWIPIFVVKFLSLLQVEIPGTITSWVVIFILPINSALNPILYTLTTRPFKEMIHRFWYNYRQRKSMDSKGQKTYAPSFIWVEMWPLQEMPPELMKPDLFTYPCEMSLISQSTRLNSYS
# This is a selection; strong and weak results do not stand in their true shares. The source made the active and inactive calls. The call rests on the fitted dose curve; in most records, active means well fitted activation curve with a large enough effect; inconclusive means small, poorly fitted or top-dose-only effect; inactive means flat fitted curve, though single readings scatter.
# Target: Relaxin receptor 1 (Homo sapiens) (UniProt Q9HBX9)
# Assay: qHTS Assay for Agonists of the Relaxin Receptor RXFP1; further: nearly all actives have a fitted effect of over 60% in size
# Conditions: HEK293T-RXFP1 cAMP TR-FRET, 30 min, percent of porcine relaxin response, buffer zero; at 57.5 µM (top of the series)
# How it was run: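 cAMP rise read by TR-FRET after 30 min, 37C compound exposure (up to 58 uM) in RXFP1-transfected HEK293 cells with Ro 20174 present. EC50 from Hill-equation fits, with 29 nM porcine relaxin as 100% and buffer as basal.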
# On the % scale 0 is the no-effect control and ±100 the full control effect.
row,SMILES,activation
1,COc1ccc2nc(NP(=O)(c3ccccc3)c3ccccc3)sc2c1,inactive: 2.48%
2,COc1cc(I)ccc1[As](=O)(O)O,inactive: 0.584%
3,COc1ccc(N/C(=N/P(=O)(N2CCOCC2)N2CCOCC2)N2CCOCC2)cc1,inactive: -1.03%
4,COc1cc(C(=O)NCC2(N3CCOCC3)CCCCC2)cc(Cl)c1OC(C)C,inactive: -1.65%
5,O=[As](O)(O)c1cccnc1,inactive: 1.16%
6,CS(=O)(=O)c1ccc(Cl)c(NC(=O)COC(=O)C(O)(c2ccccc2)c2ccccc2)c1,inactive: 0.289%
7,O=C(OC1CN2CCC1CC2)c1ccc(Cl)cc1 (stereo unspecified),inactive: 1.08%
8,O=[As](O)(c1cccc(O)c1)c1cccc(O)c1,inactive: -0.777%
9,Cc1cccc(OCC(=O)OC2CN3CCC2CC3)c1 (stereo unspecified),inactive: -0.204%
10,CCCOP(=S)(Nc1nc(N)cc(=O)[nH]1)OCCC,inactive: -0.028%
11,Nc1cccc2c([As](=O)(O)O)cccc12,inactive: 9.05%
12,Cc1ccc(NCCc2c([N+](=O)[O-])cc([N+](=O)[O-])cc2[N+](=O)[O-])cc1,inactive: -1.71%
13,COc1cc(C2NCCC3(OCCO3)C2(C)C)cc(OC)c1OC (stereo unspecified),inactive: 4.49%
14,CCOP(=O)(Nc1cccc2ccccc12)OCC,inactive: 0.794%
15,CS(=O)(=O)c1cc([N+](=O)[O-])c2no[n+]([O-])c2c1,inactive: -1.29%
16,CCOP1(=S)c2c(C)nn(CCC#N)c2N=C(c2ccccc2F)N1C (stereo unspecified),inactive: 0.683%
17,O=P(Nc1nccs1)(c1ccccc1)c1nc2ccccc2s1 (stereo unspecified),inactive: -0.666%
18,O=P(Nc1nccs1)(Oc1ccccc1)Oc1ccccc1,inactive: -2.47%
19,O=C(O)COc1ccc([As](=O)(O)O)cc1[N+](=O)[O-],inactive: -1.31%
20,Nc1ccccc1[As](=O)(O)c1ccccc1,inactive: 2.22%
21,NC(=O)Nc1ccc([As](=O)(O)O)cc1,inactive: 2.34%
22,O=[N+]([O-])c1ccc2c(c1)nnn2O,inactive: -0.514%
23,N#CCCN(C(=O)COC(=O)C(O)(c1ccccc1)c1ccccc1)c1ccc(F)cc1,inactive: -0.048%

row,SMILES,activation
1,CCOP1(=S)c2c(C)nn(CCC#N)c2N=C(c2ccc(F)cc2)N1C (stereo unspecified),inactive: 1.01%
2,CN(C(=O)Cc1ccccc1)[C@@H]1CC[C@]2(CCCO2)C[C@H]1N1CCCC1,inactive: -0.805%
3,Cc1nn(-c2ccccc2)c2c1P(=O)(N1CCOCC1)N(C)C(c1ccccc1)=N2 (stereo unspecified),inactive: 1.9%
4,Cc1ccc(C(=O)OC2CN3CCC2CC3)cc1 (stereo unspecified),inactive: -1.05%
5,CC1CCC(C(C)C)C(OP(=O)(Nc2ccccn2)c2ccccc2)C1 (stereo unspecified),inactive: -0.418%
6,O=C(/C=C/c1ccccc1)OC1CN2CCC1CC2 (stereo unspecified),inactive: 2.31%
7,CN(C)C1(CNC(=O)c2ccc(S(C)(=O)=O)cc2)CCCCC1,inactive: -1.56%
8,O=P1(Nc2ncccn2)COc2ccccc2OC1,inactive: -1.33%
9,NS(=O)(=O)c1cccc(NC(=O)COC(=O)C(O)(c2ccccc2)c2ccccc2)c1,inactive: 0.276%
10,O=P1(Nc2ccc(Br)cn2)COc2ccccc2OC1,inactive: 1.93%
11,O=[As](O)(c1cccs1)c1cccs1,inactive: -3.09%
12,Cc1ccc(OCC(=O)OC2CN3CCC2CC3)cc1 (stereo unspecified),inactive: 1.89%
13,Nc1cccc([As](=O)(O)c2ccccc2)c1,inactive: 1.21%
14,CCOP(=O)(Nc1ccc(C)cn1)OCC,inactive: 0.967%
15,CCC1=CC2Cc3nc4ccc(Cl)cc4c(N)c3C(C1)C2 (stereo unspecified),inactive: -0.107%
16,O=P1(Nc2ccccn2)COc2ccccc2OC1,inactive: 1.52%
17,CCOP(=O)(NC(=NC(C)c1ccccc1)NC(C)c1ccccc1)OCC (stereo unspecified),inactive: -0.38%
18,Clc1n[nH]nc1-c1nn[nH][15n]1,inactive: -0.25%
19,CC(C)(C)C(=O)NC(Sc1ncccn1)C(Cl)(Cl)Cl (stereo unspecified),inactive: -0.64%
20,COc1ccccc1CNC(=O)COC(=O)C(O)(c1ccccc1)c1ccccc1,inactive: 1.02%
21,O=[As](O)(c1ccccc1Br)c1ccccc1Br,inactive: -0.491%
22,CN(C(=O)Cc1ccc(Cl)c(Cl)c1)[C@@H]1CCCC[C@H]1N1CCCC1,inactive: 2.41%
23,CC(C)/C=N\N=C(\N)N[N+](=O)[O-],inactive: -1.36%
